Results on 2 compounds are retold here after ChEMBL document CHEMBL5143617 (Eur J Med Chem, 2022).

By UniProt entry, the sequences of proteins in these tests, tags left out. Where a name states a change or a piece, a line headed by the entry shows the natural chain unless it says otherwise.
UniProt Q9Y233: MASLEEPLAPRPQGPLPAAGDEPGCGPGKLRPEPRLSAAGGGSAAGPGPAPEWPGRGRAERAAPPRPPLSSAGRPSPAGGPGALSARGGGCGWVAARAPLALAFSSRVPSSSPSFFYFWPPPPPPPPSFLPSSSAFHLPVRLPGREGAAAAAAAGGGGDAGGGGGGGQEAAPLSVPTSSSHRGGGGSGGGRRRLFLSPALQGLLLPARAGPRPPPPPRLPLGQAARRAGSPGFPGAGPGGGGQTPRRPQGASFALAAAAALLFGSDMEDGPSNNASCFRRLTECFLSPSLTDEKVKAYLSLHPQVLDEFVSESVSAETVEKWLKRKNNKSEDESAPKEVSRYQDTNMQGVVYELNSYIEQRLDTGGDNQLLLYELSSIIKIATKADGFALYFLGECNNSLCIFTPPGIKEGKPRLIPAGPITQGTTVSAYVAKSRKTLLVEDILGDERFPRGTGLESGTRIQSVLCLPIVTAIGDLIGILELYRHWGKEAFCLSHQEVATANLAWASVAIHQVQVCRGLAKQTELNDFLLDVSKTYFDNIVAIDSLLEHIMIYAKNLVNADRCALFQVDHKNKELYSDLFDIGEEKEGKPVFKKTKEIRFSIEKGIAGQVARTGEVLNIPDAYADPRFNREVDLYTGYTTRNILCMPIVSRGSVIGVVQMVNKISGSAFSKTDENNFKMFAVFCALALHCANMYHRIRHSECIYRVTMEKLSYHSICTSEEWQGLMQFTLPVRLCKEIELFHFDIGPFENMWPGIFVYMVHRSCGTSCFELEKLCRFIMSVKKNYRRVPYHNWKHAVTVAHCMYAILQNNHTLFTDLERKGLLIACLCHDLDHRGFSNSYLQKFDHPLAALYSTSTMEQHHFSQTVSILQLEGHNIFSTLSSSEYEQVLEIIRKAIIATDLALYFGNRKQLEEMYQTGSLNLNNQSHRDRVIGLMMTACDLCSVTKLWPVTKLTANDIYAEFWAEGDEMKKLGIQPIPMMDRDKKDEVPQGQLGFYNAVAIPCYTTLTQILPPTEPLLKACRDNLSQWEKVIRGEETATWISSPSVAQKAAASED
UniProt P50406, whole entry: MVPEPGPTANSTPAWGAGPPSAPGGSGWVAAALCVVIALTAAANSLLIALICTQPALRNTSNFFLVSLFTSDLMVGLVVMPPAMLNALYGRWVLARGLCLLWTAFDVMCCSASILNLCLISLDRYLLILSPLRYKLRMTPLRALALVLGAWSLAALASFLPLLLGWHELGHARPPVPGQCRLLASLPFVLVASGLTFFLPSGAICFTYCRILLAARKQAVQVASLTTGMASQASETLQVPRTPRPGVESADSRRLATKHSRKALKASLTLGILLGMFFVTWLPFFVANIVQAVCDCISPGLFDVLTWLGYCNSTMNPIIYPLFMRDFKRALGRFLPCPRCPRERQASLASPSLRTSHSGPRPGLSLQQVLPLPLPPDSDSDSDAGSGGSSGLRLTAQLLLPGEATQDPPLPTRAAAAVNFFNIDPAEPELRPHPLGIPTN

For assay [1], the target named is cAMP and cAMP-inhibited cGMP 3',5'-cyclic phosphodiesterase 10A (Homo sapiens, UniProt Q9Y233). In words: Inhibition of PDE10A (unknown origin) at 10 uM preincubated for 20 mins followed by substrate addition and measured after 1 hr by PEDlight AMP detection reagent based luminescence assay relative to control. Conditions: time 80.0 min.
Assay [2] has as its target 5-hydroxytryptamine receptor 6 (Homo sapiens) (UniProt P50406). Briefly: Inhibition of 5-HT6 receptor (unknown origin). Conditions: concentration not given here.

In assay [1], `COc1cc2ncnc(N3CCC(CN4CCN(c5ccccc5O)CC4)C3)c2cc1OC` (stereo not drawn) yielded an inhibition of 20%. As to `COc1cccc(N2CCN(CC3CCN(c4ncnc5cc(OC)c(OC)cc45)C3)CC2)c1` (stereo not drawn), the inhibition amounted to 27% in assay [1] and 5% in assay [2].

By inhibition is commonly meant the relative decrease from the control value, in per cent.
